Measurements reported in patent publication US11918645B2, “Vaccines against hepatitis B virus” (priority 2012, dated 2024).

Sequences of proteins named here, by UniProt entry; tags and fusion partners are left off. A change or cut given only in a name is not applied to a line headed by its entry. Residues count along the entry.
UniProt P01903, 26-216: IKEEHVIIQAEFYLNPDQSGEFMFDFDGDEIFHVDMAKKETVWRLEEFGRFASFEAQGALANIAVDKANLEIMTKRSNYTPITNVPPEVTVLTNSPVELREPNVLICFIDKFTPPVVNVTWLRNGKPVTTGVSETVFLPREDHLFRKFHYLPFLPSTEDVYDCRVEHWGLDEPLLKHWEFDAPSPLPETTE
UniProt P01911, 30-227 W38E/Q39Y/P40S/K41T/R42S/Y61H/S66N/Q99D/A100E/Q125H/L162R/A169T/M171V/Q178H: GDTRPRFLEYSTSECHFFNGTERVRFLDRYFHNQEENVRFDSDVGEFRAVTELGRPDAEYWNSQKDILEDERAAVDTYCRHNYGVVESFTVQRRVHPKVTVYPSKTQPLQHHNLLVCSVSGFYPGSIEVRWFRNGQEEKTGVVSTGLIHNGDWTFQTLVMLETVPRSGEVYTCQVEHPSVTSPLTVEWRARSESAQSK

Columns and labels:
Experiment in all cases: ProImmune REVEAL MHC class II binding assay of long peptides
Details in all cases: percentage of the signal of the positive control peptide; positive binding score >=15%
[1] = test system: HLA-DP4 (α1*01:03;β1*04:01); design: species or system human
[2] = molecular target: T1, HLA-DR13 (α1*01:01;β1*13:01) (Homo sapiens, UniProt P01903+P01911, A100E/A169T/K41T/L162R/M171V/P40S/Q125H/Q178H/Q39Y/Q99D/R42S/S66N/W38E/Y61H)
T1 construct: purchased ProImmune
From the text: (§1) The highly frequent HLA class II alleles HLA-DR1 (α1*01:01;β1*01:01), HLA-DR15 (α1*01:01;β1*15:01), HLA-DR3 (α1*01:01;β1*03:01), HLA-DR4 (α1*01:01;β1*04:01), HLA-DR11 (α1*01:01;β1*11:01), HLA-DR13 (α1*01:01;β1*13:01), and HLA-DR7 (α1*01:01;β1*07:01) were selected. Each peptide was given a score relative to the positive control peptide, which is a known T-cell epitope. The score of the test peptide is reported quantitatively as a percentage of the signal generated by the positive control peptide, and the peptide is indicated as having a putative pass or fail result. Good binders are considered to be those peptides with scores >=15% of the positive control as defined by Proimmune.

[3] = test system: HLA-DR11 (α1*01:01;β1*11:01); design: species or system human
From the text: as §1

Substance | binding score, HLA-DP4 (α1*01:03;β1*04:01) [1] [%] | binding score, HLA-DR13 (α1*01:01;β1*13:01) [2] [%] | binding score, HLA-DR11 (α1*01:01;β1*11:01) [3] [%]
NP277(K): unconjugated HBV long peptide, polymerase 260-293 + KKK (RVSWPKFAVPNLQSLTNLLSSNLSWLSLDVSAAFYHKKK; HBV CONSENSUS SEQUENCE) | 36.19 | – | –
NP877: unconjugated HBV long peptide, core 860-890 | – | 16.34 | –
NP376: unconjugated HBV long peptide, polymerase 359-398 (C to S substitution at 393) (KLHLYSHPIILGFRKIPMGVGLSPFLLAQFTSAISSVVRR; HBV CONSENSUS SEQUENCE) | 53.66 | – | 31.38
NP113: unconjugated HBV long peptide, polymerase region 96-130 of virtual HBV proteome (VGPLTVNEKRRLKLIMPARFYPNVTKYLPLDKGIK; HBV CONSENSUS SEQUENCE) | – | – | 52.86
NP151: unconjugated HBV long peptide, polymerase region 134-168 (PEHVVNHYFQTRHYLHTLWKAGILYKRETTRSASF; HBV CONSENSUS SEQUENCE) | – | – | 49.16
